Assay results from US6706706B2, “Non-nucleoside reverse transcriptase inhibitors” (priority 2002, dated 2004).

System: HIV replication in C8166 cells, virus coding for wild type reverse transcriptase
Test: microbe, parasite or virus in culture
Type: cell-based, HIV-1
Conditions: Human immunodeficiency virus 1, C8166, 72 h, read-out: EC50 (WT) (nM)
Protocol: The compound of the invention was tested for its ability to inhibit HIV replication in cell culture in a 96-well plate assay. Complete RPMI 1640, consisting of RPMI 1640+10% fetal bovine serum, 10 μg/ml gentamycin and 10 μM β-mercaptoethanol was used for dilution of the compound as well as cell growth medium. The T lymphocyte cell line C8166 was infected at a multiplicity of infection of 0.001 with viruses coding for wild type and mutant reverse transcriptase. Cells were then incubated for three days in the presence of serial dilutions of the compound of the invention. The supernatant was pooled from eight replica wells and the concentration of extracellular p24 was determined using a commercially available HIV-1 p24 antigen assay kit (Beckman-Coulter®). The level of inhibition (% inhibition) was calculated with the following equation: [formula]

SMILES | EC50 [nM]
CCc1cc(C(=O)O)ccc1OCCc1cnc2c(c1)C(=O)N(C)c1cccnc1N2CC [Entry 1003] | < 50
CCN1c2ncc(CCOc3ccc(C(=O)O)cc3C)cc2C(=O)N(C)c2ccc(C)nc21 [Entry 1017] | < 50
CCN1c2ncc(CCOc3ccc(C(=O)O)cc3C)cc2C(=O)N(C)c2ccc(F)nc21 [Entry 1020] | < 50
CCN1c2ncc(CCOc3ccc(C(=O)O)cc3C)cc2C(=O)N(C)c2ccc(Cl)nc21 [Entry 1015] | < 50
CCN1c2ncc(CCOc3ccc(C(=O)O)cc3C)cc2C(=O)N(C)c2ccc(OC)nc21 [Entry 1019] | < 50
CCN1c2ncc(CCOc3ccc(C(=O)O)cc3Br)cc2C(=O)N(C)c2cccnc21 [Entry 1005] | < 50
